The source of these data is patent US8901315B2, “Thienopyrazole derivative having PDE7 inhibitory activity” (Daiichi Sankyo Company, Limited, priority 2004, dated 2014).

The chains behind the UniProt entries cited, without tags or fusion partners. Where a name states a change or a piece, a line headed by the entry shows the natural chain unless it says otherwise.
UniProt Q13946: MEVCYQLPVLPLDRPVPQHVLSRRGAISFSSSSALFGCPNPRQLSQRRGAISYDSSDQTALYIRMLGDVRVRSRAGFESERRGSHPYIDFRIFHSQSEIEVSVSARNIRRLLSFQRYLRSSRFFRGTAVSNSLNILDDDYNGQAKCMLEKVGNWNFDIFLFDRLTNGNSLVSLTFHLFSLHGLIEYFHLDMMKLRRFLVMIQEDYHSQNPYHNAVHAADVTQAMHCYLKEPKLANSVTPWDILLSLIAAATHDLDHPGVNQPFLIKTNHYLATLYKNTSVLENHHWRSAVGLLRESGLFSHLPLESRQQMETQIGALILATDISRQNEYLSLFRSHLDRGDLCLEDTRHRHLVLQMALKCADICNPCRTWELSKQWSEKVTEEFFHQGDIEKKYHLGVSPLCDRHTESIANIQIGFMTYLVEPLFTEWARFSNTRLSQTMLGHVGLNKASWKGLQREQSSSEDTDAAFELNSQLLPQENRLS

The target in assay [1] is PDE 7 (phosphodiesterase VII) (Homo sapiens (Human), UniProt Q13946). Nature of the assay: PDE 7 inhibiting effect (3H-cAMP hydrolysis, PDE 7 active fraction from MOLT-4 cells). The conditions noted are these: PDE 7 fraction from MOLT-4 cells, 0.064 μM cAMP, 10 μM rolipram, 2 hours at 25° C.; read-out: PDE7 IC50. It is filed as biochemical. Here is the method:
Methods for Evaluating the PDE 7 Inhibiting Effect
The PDE 7 (phosphodiesterase VII) inhibiting effect of the compounds of the present invention was performed by the following method, which was modified assay method described in Biochemical. Pharmacol. 48(6), 1219-1223 (1994). • (1) The active fraction of PDE 7 (phosphodiesterase VII) was obtained. That is, MOLT-4 (obtainable from ATCC as ATCC No. CRL-1582), which was cell line of human acute lymphoblastic lymphoma T cells, was incubated in RPMI1640 culture medium containing 10% fetal bovine serum to obtain 5×10^8 MOLT-4 cells. The cells were collected by centrifugation and suspended with 10 mL of buffer solution A [25 mM of tris-HCl, 5 mM of 2-mercaptoethanol, 2 mM of benzamidine, 2 mM of EDTA, 0.1 mM of 4-(2-aminoethyl)benzenesulfonyl hydrochloride; pH 7.5], then homogenized by Polytron® homogenizer. The homogenate were centrifuged under 25,000×G for 10 minutes at 4° C. The supernatant was separated and thus obtained supernatant was further centrifuged under 100,000×G for 60 minutes at 4° C., and then filtrated with 0.2 μm filter to obtain the soluble fraction. • (2) The obtained soluble fraction was filled in equilibrium HiTrap Q column (5 mL×2) with buffer solution A, and phosphodiesterase fractions were eluted by 300 mL of buffer solution A with linear gradient from 0 to 0.8 M NaCl concentration. 5 mL each of 60 eluents were collected, and each eluents were examined for cyclic AMP metabolic activities of phosphodiesterase. […] After the reaction, suspension of Sephadex®-QAE in 10 mM of HEPES-Na (pH 7.0) was added to the reaction mixture, and the mixture was left at rest for 5 minutes.

In assay [2] the target is PDE 4 (phosphodiesterase IV). Nature of the assay: PDE 4 inhibiting effect (3H-cAMP hydrolysis, PDE 4 active fraction from Balb/c mouse liver). It is filed as biochemical. The conditions noted are these: PDE 4 fraction from Balb/c mice liver, 0.064 μM cAMP, 2 hours at 25° C.; read-out: PDE4 IC50. Here is the method:
Methods for Evaluating the PDE 4 Inhibiting Effect
The PDE 4 (phosphodiesterase IV) inhibiting effect of the compounds of the present invention was performed by the following method, which was modified assay method described in Biochemical. […] That is, the livers obtained from three Balb/c mice (male, 12 weeks: obtainable from CLEA Japan, Inc.) were suspended with 30 mL of buffer solution B [20 mM of bis-tris, 5 mM of 2-mercaptoethanol, 2 mM of benzamidine, 2 mM of EDTA, 0.1 mM of 4-(2-aminoethyl)benzenesulfonyl hydrochloride, 50 mM of sodium acetate; pH 6.5], then homogenized by Polytron® homogenizer. The homogenate were centrifuged under 25,000×G for 10 minutes at 4° C. The supernatant was separated and thus obtained supernatant was further centrifuged under 100,000×G for 60 minutes at 4° C., and then filtrated with 0.2 μm filter to obtain the soluble fraction. • (2) The obtained soluble fraction was filled in equilibrium DEAE sepharose column (1×10 cm) with buffer solution B, and phosphodiesterase fractions were eluted by 120 mL of buffer solution B with linear gradient from 0.05 to 1M sodium acetate concentration. 5 mL each of 24 eluents were collected, and each eluents were examined for cyclic AMP metabolic activities of phosphodiesterase. […] After the reaction, suspension of Sephadex®-QAE in 10 mM of HEPES-Na (pH 7.0) was added to the reaction mixture, and the mixture was left at rest for 5 minutes.

Each structure is given as a SMILES string. Structures can show the parent of a compound that is named as a salt.

One may read the IC50 as the concentration needed to halve the response being measured. Consider `Cc1nn(C2CCCCC2)c2sc(C(=O)N[C@H]3CC[C@H](N)CC3)cc12` [Example 132, N-(trans-4-Aminocyclohexyl)-1-cyclohexyl-3-methyl-1H-thieno[2,3-c]pyrazole-5-carboxamide], for which the IC50 in assay [1] came out at 88 nM.
As to `Cc1nn(C2CCCCC2)c2sc(C(=O)N[C@H]3CC[C@H](N4CCOCC4)CC3)cc12` [Example 133, 1-Cyclohexyl-3-methyl-N-[trans-4-(4-morpholinyl)cyclohexyl]-1H-thieno[2,3-c]pyrazole-5-carboxamide], the IC50 in assay [1] came out at 9 nM.
On to `Cc1nn(C2CCCCC2)c2sc(C(=O)N[C@H]3CC[C@H](C(=O)N(C)CCO)CC3)cc12` [Example 225, 1-Cyclohexyl-N-(4-{[(2-hydroxyethyl)(methyl)amino]carbonyl}-cyclohexyl)-3-methyl-1H-thieno[2,3-c]pyrazole-5-carboxamide], for which the results for the IC50 in assay [1] and in assay [2] were 18 nM and 2000 nM, respectively.
Regarding `Cc1nn(C2CCCCC2)c2sc(C(=O)N[C@H]3CC[C@H](C(=O)NC4CC4)CC3)cc12` [Example 238, 1-Cyclohexyl-N-{4-[(cyclopropylamino)carbonyl]cyclohexyl}-3-methyl-1H-thieno[2,3-c]pyrazole-5-carboxamide HCl salt], the IC50 in assay [1] is 7.8 nM.
Take `Cc1nn(C2CCOCC2)c2sc(C(=O)N[C@H]3CC[C@H](CN4CCOCC4)CC3)cc12` [Example 358, 3-Methyl-N-[trans-4-(4-morpholinylmethyl)cyclohexyl]-1-tetrahydro-2H-pyran-4-yl-1H-thieno[2,3-c]pyrazole-5-carboxamide]: the results for the IC50 in assay [1] and in assay [2] were 71 nM and 11000 nM, respectively.
Turning to `Cc1nn(C2CCCCC2)c2sc(C(=O)Nc3ccc(CN4CCOCC4)nc3)cc12` [Example 412, 1-Cyclohexyl-3-methyl-N-[6-(4-morpholinylmethyl)-3-pyridinyl]-1H-thieno[2,3-c]pyrazole-5-carboxamide methanesulfonate], the IC50 in assay [2] came out at 4900 nM.
